Two compounds from patent US20050256210A1, “Compounds with activity at estrogen receptors” (priority 2004, published 2005) can be followed below.

Protein sequences, listed by entry. Tags and fused reporters are not part of them.
UniProt Q92731, whole entry: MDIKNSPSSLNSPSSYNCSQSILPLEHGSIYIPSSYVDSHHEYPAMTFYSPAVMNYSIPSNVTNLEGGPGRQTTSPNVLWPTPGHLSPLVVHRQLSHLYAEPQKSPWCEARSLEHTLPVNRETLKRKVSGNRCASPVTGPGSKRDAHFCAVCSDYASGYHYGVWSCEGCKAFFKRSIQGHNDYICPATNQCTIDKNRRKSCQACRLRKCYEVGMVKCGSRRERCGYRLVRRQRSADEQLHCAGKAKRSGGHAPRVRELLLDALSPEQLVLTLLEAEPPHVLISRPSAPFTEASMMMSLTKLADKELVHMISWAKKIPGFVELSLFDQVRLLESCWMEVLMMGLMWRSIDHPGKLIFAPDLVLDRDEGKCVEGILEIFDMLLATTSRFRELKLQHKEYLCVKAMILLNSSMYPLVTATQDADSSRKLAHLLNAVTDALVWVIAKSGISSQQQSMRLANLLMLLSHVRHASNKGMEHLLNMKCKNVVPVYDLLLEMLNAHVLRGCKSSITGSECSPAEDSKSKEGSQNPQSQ
UniProt P03372, whole entry: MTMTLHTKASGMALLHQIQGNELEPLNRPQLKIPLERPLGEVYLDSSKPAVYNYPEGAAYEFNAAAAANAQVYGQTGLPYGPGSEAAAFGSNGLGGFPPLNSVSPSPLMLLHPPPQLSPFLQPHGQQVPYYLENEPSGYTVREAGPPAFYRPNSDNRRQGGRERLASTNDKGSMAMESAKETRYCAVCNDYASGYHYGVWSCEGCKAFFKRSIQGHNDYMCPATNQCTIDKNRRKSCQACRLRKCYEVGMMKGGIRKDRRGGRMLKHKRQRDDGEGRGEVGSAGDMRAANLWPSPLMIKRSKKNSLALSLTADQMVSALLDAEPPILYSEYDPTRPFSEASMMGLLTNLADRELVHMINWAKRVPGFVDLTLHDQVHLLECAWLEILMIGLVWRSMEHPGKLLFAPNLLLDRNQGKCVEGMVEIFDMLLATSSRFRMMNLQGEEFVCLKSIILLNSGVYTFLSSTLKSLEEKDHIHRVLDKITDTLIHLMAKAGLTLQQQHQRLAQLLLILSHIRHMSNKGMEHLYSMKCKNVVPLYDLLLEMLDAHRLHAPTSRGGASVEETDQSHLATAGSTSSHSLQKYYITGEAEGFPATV

Assay [1] addresses Estrogen receptor beta (ERβ) (Homo sapiens, UniProt Q92731). Briefly: Receptor Selection and Amplification Technology (R-SAT) functional receptor assay, ERβ. Particulars: for % Efficacy ERβ: NIH3T3 cells, efficacy relative to the reference ligand Estrone; for pEC50 ERβ: transfected NIH3T3 cells, agonist activity.
In assay [2] the target is Estrogen receptor alpha (ERα) (Homo sapiens, UniProt P03372). In words: Receptor Selection and Amplification Technology (R-SAT) functional receptor assay, ERα. The note with it: for % Efficacy ERα: NIH3T3 cells, efficacy relative to the reference ligand Estrone; for pEC50 ERα: transfected NIH3T3 cells, agonist activity. As to the method: The functional receptor assay, Receptor Selection and Amplification Technology (R-SAT™), was used with minor modifications from the procedure described in U.S. Pat. No. 5,707,798, which is hereby incorporated by reference in its entirety, to screen compounds for efficacy at the Estrogen receptors alpha and beta (ERα, ERβ). NIH3T3 cells were grown in roller bottles to 70-80% confluence. Cells were then transfected for 12-16 h with plasmid DNAs using Polyfect (Qiagen Inc.) as per the manufacturer's protocol. R-SAT assays were typically performed by transfecting 30 ug/bottle of receptor and 50 ug/bottle of β-galactosidase plasmid DNA. All receptor and helper constructs used were in mammalian expression vectors. Helpers are defined as signaling molecules that modulate both ligand-dependent and/or ligand-independent function of the ER receptors, typically co-activators and kinases. NIH3T3 cells were transfected for 12-16 h, then trypsinized and frozen in DMSO. Frozen cells were later thawed, plated at 10,000-40,000 cells per well of a 96 well plate containing 4-(1-Phenyl-cyclohexyl)-phenol. Cells were then grown in a humidified atmosphere with 5% ambient CO2 for five days. Media was then removed from the plates and marker gene activity was measured by the addition of the β-galactosidase substrate o-nitrophenyl β-D-galactopyranoside (ONPG, in PBS with 5% NP-40). The resulting colorimetric reaction was measured in a spectrophotometric plate reader (Titertek Inc.) at […]. All data were analyzed using the computer program XLFit (IDBSm).
These experiments provided a molecular profile, or fingerprint, for each agent tested at the human Estrogen receptors.

Bounds are passed on as bounds.

In the case of `Oc1ccc(C2(c3ccccc3F)CCCCC2)cc1F`, in assay [1], the “% Efficacy ERβ” value turned out to be 57% and the “pEC50 ERβ” value came to 7.1. Moreover, in assay [2], the “% Efficacy ERα” value is reported as 30% and the “pEC50 ERα” value stood at 5.8.
The matching figures for `Oc1ccc(C2(c3c(F)cccc3Cl)CCCCC2)cc1`: 25%, 7.0, 13% and less than 5.0.
